The test concerns the target human GLP-1R (Homo sapiens, UniProt P43220).

Protein sequences, listed by entry. Tags and fused reporters are not part of them. Residues count along the entry.
UniProt P43220, 24-463: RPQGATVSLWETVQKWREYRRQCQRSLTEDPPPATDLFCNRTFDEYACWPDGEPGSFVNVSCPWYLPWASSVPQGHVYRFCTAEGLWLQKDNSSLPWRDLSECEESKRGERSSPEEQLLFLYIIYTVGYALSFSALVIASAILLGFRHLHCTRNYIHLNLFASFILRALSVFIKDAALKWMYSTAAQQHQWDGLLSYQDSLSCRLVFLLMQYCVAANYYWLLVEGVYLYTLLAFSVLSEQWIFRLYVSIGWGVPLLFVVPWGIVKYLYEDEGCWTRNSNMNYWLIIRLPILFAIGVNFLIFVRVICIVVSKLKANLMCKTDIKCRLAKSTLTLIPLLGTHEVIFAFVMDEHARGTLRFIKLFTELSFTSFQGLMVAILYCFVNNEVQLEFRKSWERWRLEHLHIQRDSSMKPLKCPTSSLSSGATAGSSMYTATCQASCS

The source of these data is paper PMC4266362 (Journal of Medicinal Chemistry, 2014).

For `CCN1CCC[C@H]1CNC(=O)c1cn(C2CCCC2)c(=O)c2c1c1ccccc1n2C` [(S)-8], the “GLP-1 %max in fold-shift experiment” value (increased from 100.3) was 129.6%. For the same molecule, for the setting “standard fold-shift experiment”, the “fold shift of the GLP-1 concentration–response curve” value is reported as around 2 fold.
